Values of other authors, collected in patent US8242178B2, “Use of cannabidiol in the treatment of autoimmune hepatitis” (University of South Carolina, priority 2007, dated 2012).

Chains of the proteins cited; added tags and fusions are not shown.
UniProt P34972, whole entry: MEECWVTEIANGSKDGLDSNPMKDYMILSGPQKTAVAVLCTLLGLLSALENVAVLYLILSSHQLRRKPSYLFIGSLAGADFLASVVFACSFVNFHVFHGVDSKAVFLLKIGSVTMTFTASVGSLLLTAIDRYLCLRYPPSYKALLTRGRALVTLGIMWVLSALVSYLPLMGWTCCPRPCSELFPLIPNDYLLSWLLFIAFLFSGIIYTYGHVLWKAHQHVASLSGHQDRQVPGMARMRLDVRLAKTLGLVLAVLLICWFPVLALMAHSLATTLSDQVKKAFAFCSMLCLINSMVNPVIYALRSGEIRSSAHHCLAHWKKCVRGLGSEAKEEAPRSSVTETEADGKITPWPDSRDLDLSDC

Target: CB2 (Homo sapiens, UniProt P34972)
Conditions: read-out: affinity for CB2 receptors (Ki); found by other investigators; cited from earlier work

C=C(C)[C@@H]1CCC(C)=C[C@H]1c1c(O)cc(CCCCC)cc1O [CBD, cannabidiol]
Ki: 96.3 nM
